Source: ChEMBL document CHEMBL1133080, “Substituted 5,7-diphenyl-pyrrolo[2,3d]pyrimidines: potent inhibitors of the tyrosine kinase c-Src” (Bioorg Med Chem Lett, 2000)

The chains behind the UniProt entries cited, without tags or fusion partners.
UniProt P00533, whole entry: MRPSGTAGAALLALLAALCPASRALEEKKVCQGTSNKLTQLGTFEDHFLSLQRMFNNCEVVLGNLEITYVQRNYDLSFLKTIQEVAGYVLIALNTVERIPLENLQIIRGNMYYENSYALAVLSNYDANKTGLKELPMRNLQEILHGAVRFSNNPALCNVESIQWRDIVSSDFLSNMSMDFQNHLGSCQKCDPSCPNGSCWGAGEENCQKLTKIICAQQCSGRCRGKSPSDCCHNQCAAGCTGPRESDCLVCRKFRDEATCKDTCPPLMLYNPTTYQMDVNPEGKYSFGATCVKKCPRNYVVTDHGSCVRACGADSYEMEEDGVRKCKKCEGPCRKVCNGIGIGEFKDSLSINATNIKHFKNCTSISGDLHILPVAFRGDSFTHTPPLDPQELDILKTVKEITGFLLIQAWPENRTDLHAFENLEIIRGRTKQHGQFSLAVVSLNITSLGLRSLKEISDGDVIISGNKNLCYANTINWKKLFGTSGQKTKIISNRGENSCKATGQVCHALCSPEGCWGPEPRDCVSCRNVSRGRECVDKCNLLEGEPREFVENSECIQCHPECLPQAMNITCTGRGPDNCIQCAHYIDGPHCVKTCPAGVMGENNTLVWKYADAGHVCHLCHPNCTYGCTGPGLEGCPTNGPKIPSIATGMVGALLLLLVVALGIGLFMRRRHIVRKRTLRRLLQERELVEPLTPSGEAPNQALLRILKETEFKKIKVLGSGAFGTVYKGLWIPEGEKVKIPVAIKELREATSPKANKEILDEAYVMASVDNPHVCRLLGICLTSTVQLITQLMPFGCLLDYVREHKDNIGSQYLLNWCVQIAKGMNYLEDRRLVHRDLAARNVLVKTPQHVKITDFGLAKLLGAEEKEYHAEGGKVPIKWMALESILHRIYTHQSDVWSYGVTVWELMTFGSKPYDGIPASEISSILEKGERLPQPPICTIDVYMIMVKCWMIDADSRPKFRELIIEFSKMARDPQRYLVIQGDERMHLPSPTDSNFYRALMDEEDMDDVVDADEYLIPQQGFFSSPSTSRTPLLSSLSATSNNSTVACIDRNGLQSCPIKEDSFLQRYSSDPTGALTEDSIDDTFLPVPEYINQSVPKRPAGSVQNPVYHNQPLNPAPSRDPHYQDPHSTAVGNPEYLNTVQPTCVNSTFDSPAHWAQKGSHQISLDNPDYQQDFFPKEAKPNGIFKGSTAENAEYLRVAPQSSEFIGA
UniProt P35968, whole entry: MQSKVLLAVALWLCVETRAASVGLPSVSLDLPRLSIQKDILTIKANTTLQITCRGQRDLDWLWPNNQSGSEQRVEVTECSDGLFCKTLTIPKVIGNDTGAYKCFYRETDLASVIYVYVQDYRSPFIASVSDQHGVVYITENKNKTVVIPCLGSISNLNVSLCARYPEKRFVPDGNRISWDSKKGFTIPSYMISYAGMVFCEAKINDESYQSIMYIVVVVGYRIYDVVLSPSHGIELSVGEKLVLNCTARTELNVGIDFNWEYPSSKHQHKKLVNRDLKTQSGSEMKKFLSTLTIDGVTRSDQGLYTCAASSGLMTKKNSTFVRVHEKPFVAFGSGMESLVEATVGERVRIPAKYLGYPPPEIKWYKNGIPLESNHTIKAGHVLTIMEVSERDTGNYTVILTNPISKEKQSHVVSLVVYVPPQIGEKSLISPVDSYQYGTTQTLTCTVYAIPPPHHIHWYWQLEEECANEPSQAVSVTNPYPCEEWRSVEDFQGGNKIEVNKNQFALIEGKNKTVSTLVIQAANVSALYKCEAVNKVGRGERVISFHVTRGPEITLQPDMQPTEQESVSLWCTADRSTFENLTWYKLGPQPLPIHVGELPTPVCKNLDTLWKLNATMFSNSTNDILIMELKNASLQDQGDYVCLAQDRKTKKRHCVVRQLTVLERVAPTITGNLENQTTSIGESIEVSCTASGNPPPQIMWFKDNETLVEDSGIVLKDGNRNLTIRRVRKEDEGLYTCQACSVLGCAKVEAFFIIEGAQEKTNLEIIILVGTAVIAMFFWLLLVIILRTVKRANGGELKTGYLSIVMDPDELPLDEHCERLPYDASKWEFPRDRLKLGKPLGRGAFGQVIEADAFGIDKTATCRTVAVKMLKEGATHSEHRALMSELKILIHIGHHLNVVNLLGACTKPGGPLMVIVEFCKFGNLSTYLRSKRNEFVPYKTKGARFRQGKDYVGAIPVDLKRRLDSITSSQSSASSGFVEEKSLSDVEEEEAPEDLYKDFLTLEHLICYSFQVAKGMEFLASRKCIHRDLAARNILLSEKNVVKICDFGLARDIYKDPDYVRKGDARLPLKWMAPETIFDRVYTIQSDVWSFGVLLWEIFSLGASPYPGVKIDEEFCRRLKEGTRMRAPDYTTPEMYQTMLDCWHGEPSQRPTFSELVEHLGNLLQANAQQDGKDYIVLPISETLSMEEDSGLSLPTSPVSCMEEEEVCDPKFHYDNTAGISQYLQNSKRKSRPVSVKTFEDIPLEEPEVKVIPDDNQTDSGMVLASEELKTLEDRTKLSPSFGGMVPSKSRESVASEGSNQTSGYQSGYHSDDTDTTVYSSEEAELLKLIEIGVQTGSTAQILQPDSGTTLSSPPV

Legend:
[1] = target: T1, Epidermal growth factor receptor (Homo sapiens, UniProt P00533); assay: Tested for inhibition of EGF-receptor tyrosine kinase in intact cells
[2] = target: T1, Epidermal growth factor receptor; assay: Tested in vitro for inhibition of EGF-receptor tyrosine kinase
[3] = target: Vascular endothelial growth factor receptor 2 (Homo sapiens, UniProt P35968); assay: Tested in vitro for inhibition of KDR-receptor tyrosine kinase

Nc1ncnc2c1c(-c1ccccc1)cn2-c1ccccc1
IC50 [1]: 3000 nM | IC50 [2]: 500 nM | IC50 [3]: 500 nM
